Results on one compound are retold here after patent publication US11643388B2, “Inhibitors of alpha 2 beta 1 integrin and methods of use thereof” (The Regents of the University of California, priority 2020, dated 2023).

Amino acid sequences for entries named in this document (tags omitted). Residues count along the entry.
UniProt P05556, 21-798 limits assumed: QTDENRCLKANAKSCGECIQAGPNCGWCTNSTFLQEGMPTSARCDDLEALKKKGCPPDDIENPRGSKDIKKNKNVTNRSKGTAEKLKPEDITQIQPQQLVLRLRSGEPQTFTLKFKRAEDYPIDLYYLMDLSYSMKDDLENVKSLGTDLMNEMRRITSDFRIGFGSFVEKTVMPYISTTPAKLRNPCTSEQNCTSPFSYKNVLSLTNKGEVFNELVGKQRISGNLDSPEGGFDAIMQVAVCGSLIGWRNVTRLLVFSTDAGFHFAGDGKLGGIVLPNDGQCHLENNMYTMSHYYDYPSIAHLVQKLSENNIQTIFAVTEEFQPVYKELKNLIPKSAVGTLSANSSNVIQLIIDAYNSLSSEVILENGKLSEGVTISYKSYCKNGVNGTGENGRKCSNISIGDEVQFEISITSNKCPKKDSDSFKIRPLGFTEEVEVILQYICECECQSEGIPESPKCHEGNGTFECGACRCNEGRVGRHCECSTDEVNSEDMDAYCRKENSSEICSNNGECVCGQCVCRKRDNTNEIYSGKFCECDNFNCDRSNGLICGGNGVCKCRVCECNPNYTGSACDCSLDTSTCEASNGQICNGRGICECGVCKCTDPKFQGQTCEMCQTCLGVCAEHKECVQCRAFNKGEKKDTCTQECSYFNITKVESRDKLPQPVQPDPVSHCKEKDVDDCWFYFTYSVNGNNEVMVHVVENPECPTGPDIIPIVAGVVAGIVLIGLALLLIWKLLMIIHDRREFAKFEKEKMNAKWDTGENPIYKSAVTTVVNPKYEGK
UniProt P17301, 30-1181 limits assumed: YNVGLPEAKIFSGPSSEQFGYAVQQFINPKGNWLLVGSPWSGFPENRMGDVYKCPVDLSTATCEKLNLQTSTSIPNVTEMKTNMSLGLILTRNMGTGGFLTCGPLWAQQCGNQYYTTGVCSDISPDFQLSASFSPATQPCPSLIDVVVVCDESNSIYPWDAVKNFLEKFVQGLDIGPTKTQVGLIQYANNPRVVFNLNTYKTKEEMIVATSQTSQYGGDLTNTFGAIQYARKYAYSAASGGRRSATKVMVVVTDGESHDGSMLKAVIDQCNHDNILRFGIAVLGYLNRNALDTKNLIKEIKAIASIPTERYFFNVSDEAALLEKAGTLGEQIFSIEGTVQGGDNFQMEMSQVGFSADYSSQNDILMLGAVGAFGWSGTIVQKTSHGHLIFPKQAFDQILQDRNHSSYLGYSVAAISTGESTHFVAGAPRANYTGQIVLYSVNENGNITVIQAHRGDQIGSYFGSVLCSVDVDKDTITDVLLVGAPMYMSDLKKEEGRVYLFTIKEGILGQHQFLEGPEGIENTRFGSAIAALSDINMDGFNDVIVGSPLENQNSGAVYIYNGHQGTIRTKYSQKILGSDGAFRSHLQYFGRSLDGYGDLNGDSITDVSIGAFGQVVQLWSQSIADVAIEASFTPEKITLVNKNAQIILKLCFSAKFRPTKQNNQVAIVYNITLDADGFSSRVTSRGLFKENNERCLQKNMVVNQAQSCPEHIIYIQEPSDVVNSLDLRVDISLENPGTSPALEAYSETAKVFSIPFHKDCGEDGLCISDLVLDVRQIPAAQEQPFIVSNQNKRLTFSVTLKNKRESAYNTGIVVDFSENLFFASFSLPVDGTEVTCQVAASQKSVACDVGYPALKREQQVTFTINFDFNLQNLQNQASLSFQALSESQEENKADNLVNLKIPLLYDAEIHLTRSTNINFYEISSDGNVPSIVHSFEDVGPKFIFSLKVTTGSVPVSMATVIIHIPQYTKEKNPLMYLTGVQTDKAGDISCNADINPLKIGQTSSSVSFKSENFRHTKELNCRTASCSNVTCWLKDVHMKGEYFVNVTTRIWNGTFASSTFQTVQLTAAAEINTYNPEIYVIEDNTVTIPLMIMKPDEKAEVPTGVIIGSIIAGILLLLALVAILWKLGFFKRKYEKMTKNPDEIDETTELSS

In the experiment the target is α2β1 (Homo sapiens, UniProt P05556+P17301). Put plainly: α2β1 cell adhesion. Format: cell-based. The conditions noted are these: read-out: α2β1 Cell Adhesion IC50.

One may read the IC50 as the concentration that gives 50% inhibition. On to `O=C(NC[C@H](NC(=O)c1ccc(C(=O)NCc2ccccc2O)cc1Cl)C(=O)O)N[C@@H]1CCc2ccccc21`, for which the IC50 is less than 500 nM.
